The text below walks through data of the Kinase Knowledgebase extract (Sharma et al. 2016).

By UniProt entry, the sequences of proteins in these tests, tags left out. Where a name states a change or a piece, a line headed by the entry shows the natural chain unless it says otherwise.
UniProt O00329: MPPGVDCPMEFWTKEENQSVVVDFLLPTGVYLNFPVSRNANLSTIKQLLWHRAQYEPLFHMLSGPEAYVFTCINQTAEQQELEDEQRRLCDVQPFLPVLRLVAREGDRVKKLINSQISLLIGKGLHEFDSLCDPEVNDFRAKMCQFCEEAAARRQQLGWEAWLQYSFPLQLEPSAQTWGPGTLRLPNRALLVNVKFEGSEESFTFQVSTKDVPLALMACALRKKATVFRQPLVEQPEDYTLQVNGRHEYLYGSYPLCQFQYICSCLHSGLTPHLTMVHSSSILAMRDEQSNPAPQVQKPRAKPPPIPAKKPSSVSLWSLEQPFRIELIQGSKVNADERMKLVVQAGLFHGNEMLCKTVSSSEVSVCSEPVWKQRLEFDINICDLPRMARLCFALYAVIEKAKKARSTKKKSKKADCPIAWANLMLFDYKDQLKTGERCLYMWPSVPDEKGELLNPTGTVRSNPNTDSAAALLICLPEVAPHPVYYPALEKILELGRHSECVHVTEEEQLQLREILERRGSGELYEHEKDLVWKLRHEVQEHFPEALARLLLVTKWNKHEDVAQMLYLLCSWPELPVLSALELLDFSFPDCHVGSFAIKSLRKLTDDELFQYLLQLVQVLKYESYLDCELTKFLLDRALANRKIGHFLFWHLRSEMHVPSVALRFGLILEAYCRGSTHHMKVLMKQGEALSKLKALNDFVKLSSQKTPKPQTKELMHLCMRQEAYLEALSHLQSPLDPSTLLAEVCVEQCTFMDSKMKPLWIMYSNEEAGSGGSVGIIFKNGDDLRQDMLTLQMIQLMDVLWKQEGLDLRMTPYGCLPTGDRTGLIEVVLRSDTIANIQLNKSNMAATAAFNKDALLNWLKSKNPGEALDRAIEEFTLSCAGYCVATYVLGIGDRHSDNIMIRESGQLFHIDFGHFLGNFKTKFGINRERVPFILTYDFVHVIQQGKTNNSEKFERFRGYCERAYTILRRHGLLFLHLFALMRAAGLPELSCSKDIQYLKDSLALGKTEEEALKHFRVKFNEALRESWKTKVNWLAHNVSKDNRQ

This assay concerns the target PIK3CD (Human) (UniProt O00329). Briefly: Assessment of PIK3CD Kinase Activity.

As to `CC(Nc1ncnc2[nH]cnc12)c1cc(Cl)c2ccnnc2c1-c1cccc(F)c1` (configuration not stated), the 50% inhibitory concentration (IC50) was less than 50 nM. The value for `C[C@H](Nc1ncnc2[nH]cnc12)c1cc(Cl)c2ccnnc2c1-c1cccc(F)c1` was less than 50 nM.
